Assay results from patent publication US20150031714A1, “METHODS AND COMPOSITIONS FOR PREVENTION OF ALLERGIC REACTION” (Baylor College of Medicine, priority 2013, published 2015).

The chains behind the UniProt entries cited, without tags or fusion partners. Residues count along the entry.
UniProt P40763, 2-770 limits assumed: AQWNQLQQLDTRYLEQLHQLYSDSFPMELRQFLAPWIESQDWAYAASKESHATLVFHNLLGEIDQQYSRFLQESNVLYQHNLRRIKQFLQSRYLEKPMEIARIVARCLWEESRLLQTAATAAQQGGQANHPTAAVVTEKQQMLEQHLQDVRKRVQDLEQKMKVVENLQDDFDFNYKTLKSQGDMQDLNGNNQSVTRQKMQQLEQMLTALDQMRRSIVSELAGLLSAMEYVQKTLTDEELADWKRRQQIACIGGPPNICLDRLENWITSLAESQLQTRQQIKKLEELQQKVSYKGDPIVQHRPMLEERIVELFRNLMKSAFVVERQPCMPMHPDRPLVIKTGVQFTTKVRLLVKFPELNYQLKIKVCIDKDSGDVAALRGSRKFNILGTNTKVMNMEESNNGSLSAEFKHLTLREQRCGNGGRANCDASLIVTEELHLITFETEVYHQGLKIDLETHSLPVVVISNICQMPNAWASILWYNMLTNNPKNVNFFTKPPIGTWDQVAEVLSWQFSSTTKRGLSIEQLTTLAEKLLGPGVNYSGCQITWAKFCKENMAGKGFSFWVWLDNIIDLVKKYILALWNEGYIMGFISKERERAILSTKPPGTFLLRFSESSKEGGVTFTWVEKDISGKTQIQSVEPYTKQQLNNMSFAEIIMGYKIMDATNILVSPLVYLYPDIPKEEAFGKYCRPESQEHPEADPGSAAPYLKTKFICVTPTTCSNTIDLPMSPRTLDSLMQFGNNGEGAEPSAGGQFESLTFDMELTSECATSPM

Biological target: T1, Stat3-DNA (hSIE) complexes (Homo sapiens, UniProt P40763)
T1 construct: high salt extracts were prepared from HepG2 cells incubated without or with IL-6 (30 ng/ml) for 30 minutes; endogenous in cells; host or cells: HepG2 (IL-6-stimulated), whole-cell high-salt extract
Assay: Electrophoretic mobility shift assay (EMSA), Stat3:hSIE DNA binding
Format: biochemical
Conditions: 300 μM, extracts of IL-6-stimulated HepG2 cells
Protocol: Electrophoretic mobility shift assays were performed using whole-cell extracts prepared from HepG2 cells without and with stimulation with IL-6 (30 ng/ml) for 30 min. Protein (20 μg) was incubated with radiolabeled duplex oligonucleotide (hSIE) and DMSO without or with the indicated compounds (300 uM) for 60 minutes at 37° C. then separated by PAGE. The gel was dried and autoradiographed; the portion of the gel corresponding to the Stat3-bound hSIE band is shown. Data shown are representative of 2 studies.
Electrophoretic Mobility Shift Assay (EMSA): EMSA was performed using the hSIE radiolabeled duplex oligonucleotide as a probe as described (Tweardy et al., 1995). Briefly, high salt extracts were prepared from HepG2 cells incubated without or with IL-6 (30 ng/ml) for 30 minutes. Protein concentration was determined by Bradford Assay and 20 ug of extract was incubated with compound (300 uM) for 60 minutes at 37 °C. […] Gels were dried and autoradiographed.
Once in the nucleus, Stat3 dimers bind to specific DNA elements to activate and, in some instances, repress gene transcription. […] Compounds that bind to the phosphopeptide-binding site of Stat3 might be expected to do the same. […]

With COC(=O)Cc1c(C)c2ccc(OCc3ccc(C(=O)OC)cc3)c(C)c2oc1=O [Cpd3-7, methyl 4-({[3-(2-methyoxy-2-oxoethyl)-4,8-dimethyl-2-oxo-2H-chromen-7-yl]oxy}methyl)benzoate] the “Stat3:hSIE band intensity (amount of hSIE shifted)” value was “reduced the amount of hSIE shifted by half or greater”.
